# Experimental water solubility values from OPERA 2.9

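The numbers are reported measurements, compiled and curated for the OPERA QSAR suite. A listed value is a point estimate from one report or more. Method, purity and exact conditions of the single measurements are not given. A value may pool stereoisomers or salt forms, and the file does not say which form was measured. Some entries may be limits or estimates that an upstream database listed as plain numbers.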

Solubility in water is on a log10 molar scale (set defined at 25 °C).
"n/a" marks a cell with nothing listed here.

Listed for CC(C)C1C(O)=NC(=O)N=C1O [BARBITURIC ACID, 5-IPR]: log solubility -1.456 (log10 mol/L).
Listed for CC(C)(C)C(=O)O[C@H]1CC[C@]2(C)[C@H]3CC[C@]4(C)C(=O)[C@H]5C[C@H]5[C@H]4[C@@H]3C=C[C@]2(O)C1: log solubility -4.825 (log10 mol/L).
Listed for FC(C(F)C(F)(F)C(F)(F)F)C(F)(F)F (configuration not stated) [2H,3H-Decafluoropentane]: log solubility -3.883 (log10 mol/L).
Listed for CCCCOC(=O)c1ccccc1N [Butyl anthranilate]: log solubility -3.383 (log10 mol/L).
Listed for CC1=CC(=O)c2c(O)cccc2C1=O [1,4-Naphthalenedione, 5-hydroxy-2-methyl-]: log solubility -2.797 (log10 mol/L).
Listed for N#CC1(N=NC2(C#N)CCCCC2)CCCCC1 [1,1'-Diazene-1,2-diyldicyclohexanecarbonitrile]: log solubility -4.862 (log10 mol/L).
Listed for CCCCCCCCC1(CC)C(=O)NC(=O)NC1=O [5-Octyl-5-ethylbarbituric acid]: log solubility -3.943 (log10 mol/L).
Listed for CCCCC(C#N)(Cn1cncn1)c1ccc(Cl)cc1 (configuration not stated) [Myclobutanil]: log solubility -3.315 (log10 mol/L).
Listed for C[C@@]1(OO)NC(=O)N[C@H]1O (stereo in doubt) [(4S,5S)-4-Hydroperoxy-5-hydroxy-4-methylimidazolidin-2-one]: log solubility -0.597 (log10 mol/L).
Listed for CC(C)(C)OOC(C)(C)C#CC(C)(C)OOC(C)(C)C [2,5-Bis(tert-butylperoxy)-2,5-dimethyl-3-hexyne]: log solubility -5.115 (log10 mol/L).
Listed for Cl.Nc1cc(Cl)ccc1Cl [2,5-Dichloroaniline--hydrogen chloride (1/1)]: log solubility -2.075 (log10 mol/L).
Listed for O=C([O-])C(F)(F)C(F)(F)C(F)(F)C(F)(F)C(F)(F)C(F)(F)C(F)(F)F.[NH4+] [Ammonium perfluorooctanoate]: log solubility -1.776 (log10 mol/L).
Listed for CCOP(=S)(OCC)SC1OCCOC1SP(=S)(OCC)OCC (configuration not stated) [Dioxathion]: log solubility -5.47 (log10 mol/L).
Listed for CCCC1(CC(C)C)C(=O)NC(=O)NC1=O [5-Isobutyl-5-propyl-2,4,6(1H,3H,5H)-pyrimidinetrione]: log solubility -2.258 (log10 mol/L).
Listed for N#Cc1ccc(Cl)cc1 [4-Chlorobenzonitrile]: log solubility -2.749 (log10 mol/L).
Listed for CCOC(=O)C1(c2ccccc2)CCN(CCC(C#N)(c2ccccc2)c2ccccc2)CC1 [Diphenoxylate]: log solubility -2.75 (log10 mol/L).
Listed for CC(C=O)Cc1ccc2c(c1)OCO2 (configuration not stated) [3-(3,4-Methylenedioxyphenyl)-2-methylpropanal]: log solubility -2.313 (log10 mol/L).
Listed for CC(=O)Nc1c2sscc-2n(C)c1=O [Thiolutin]: log solubility -3.036 (log10 mol/L).
Listed for COc1ccc(C(OC[C@H]2O[C@@H](n3ccc(NC(=O)c4ccccc4)nc3=O)C[C@@H]2OP(OCCC#N)N(C(C)C)C(C)C)(c2ccccc2)c2ccc(OC)cc2)cc1 (stereo partly specified) [Bz-dC Phosphoramidite]: log solubility -6.197 (log10 mol/L).
Listed for C[C@]12COC(=O)C[C@@H]1CC[C@@H]1[C@@H]2CC[C@@]2(C)[C@H]1CC[C@]2(C)O [Oxandrolone]: log solubility -4.34 (log10 mol/L).
Listed for O=C(O)C(F)(F)C(F)(F)C(F)(F)C(F)(F)C(F)(F)C(F)(F)C(F)(F)C(F)(F)C(F)(F)F [Perfluorodecanoic acid]: log solubility -2.648 (log10 mol/L).
Listed for C(=NC1CCCCC1)=NC1CCCCC1 [Dicyclohexylcarbodiimide]: log solubility -5.562 (log10 mol/L).
Listed for C[C@]12CC[C@H]3[C@@H](CCC4=CC(=O)CC[C@@H]43)[C@@H]1CC[C@@H]2OC(=O)CCc1ccccc1 [Nandrolone phenpropionate]: log solubility -5.948 (log10 mol/L).
Listed for CC(C)(N)Cc1ccccc1 [Phentermine]: log solubility -2.295 (log10 mol/L).
Listed for CCC(C)Br (configuration not stated) [2-Bromobutane]: log solubility -3.111 (log10 mol/L).
Listed for CC(C)CC(C)c1sccc1NC(=O)c1cn(C)nc1C(F)(F)F (configuration not stated) [Penthiopyrad]: log solubility -4.68 (log10 mol/L).
Listed for O=C(O)C(F)(F)F.O=C([O-])C(F)(F)F.O=C([O-])C(F)(F)F.c1ccc2c(c1)c1cc[n+]2CCCCC[n+]2ccc(c3ccccc32)NCCCCCN1: log solubility -1.629 (log10 mol/L).
Listed for Cl.ClCCCN1CCN(c2cccc(Cl)c2)CC1: log solubility -1.9 (log10 mol/L).
Listed for N#Cc1sc2c(=O)c3ccccc3c(=O)c=2sc1C#N [Dithianon]: log solubility -6.13 (log10 mol/L).
Listed for C=CCC1(C(C)CCC)C(=O)NC(=O)NC1=O (configuration not stated) [Secobarbital]: log solubility -2.276 (log10 mol/L).
Listed for Nc1c(C(=O)O)cc([N+](=O)[O-])cc1[N+](=O)[O-] [2-Amino-3,5-dinitrobenzoic acid]: log solubility -3.101 (log10 mol/L).
Listed for CN(C)c1ccc(Cc2ccc(N(C)C)cc2)cc1 [4,4'-Methylenebis(N,N-dimethylaniline)]: log solubility -4.78 (log10 mol/L).
Listed for CN[C@@H](C)Cc1ccccc1 [Methamphetamine]: log solubility -2.206 (log10 mol/L).
Listed for CCCN1C[C@H](CSC)C[C@@H]2c3cccc4[nH]cc(c34)C[C@H]21 [Pergolide]: log solubility -5.731 (log10 mol/L).
Listed for C[C@]12CC[C@H]3[C@@H](CCC4=CC(=O)C=C[C@@]43C)[C@@H]1CC[C@@H]2O [Boldenone]: log solubility -3.7 (log10 mol/L).
Listed for CCCCCCCCCCCCN(C)C [N,N-Dimethyldodecan-1-amine]: log solubility -3.761 (log10 mol/L).
Listed for CCCCOC(=O)COC(=O)c1ccccc1C(=O)OCCCC [Butylphthalyl butylglycolate]: log solubility -5.2 (log10 mol/L).

The first 4 entries again:

| SMILES | name | log solubility (log10 mol/L) |
|---|---|---|
| CC(C)C1C(O)=NC(=O)N=C1O | BARBITURIC ACID, 5-IPR | -1.456 |
| CC(C)(C)C(=O)O[C@H]1CC[C@]2(C)[C@H]3CC[C@]4(C)C(=O)[C@H]5C[C@H]5[C@H]4[C@@H]3C=C[C@]2(O)C1 | n/a | -4.825 |
| FC(C(F)C(F)(F)C(F)(F)F)C(F)(F)F (configuration not stated) | 2H,3H-Decafluoropentane | -3.883 |
| CCCCOC(=O)c1ccccc1N | Butyl anthranilate | -3.383 |

Source: data files of OPERA 2.9 (Mansouri et al.), github.com/kmansouri/OPERA.